The record followed here is ChEMBL document CHEMBL1129509, “Hypoxia-selective antitumor agents. 12. Nitrobenzyl quaternary salts as bioreductive prodrugs of the alkylating agent mechlorethamine” (1996).

One experiment relates to UV4. Put plainly: Hypersensitivity factor is the ratio of IC50 for AA8/IC50 for UV4 cell line. As to conditions: Cricetulus griseus.
The test system of the next experiment is EMT6. Nature of the experiment: Hypersensitivity factor is the ratio of IC50 for AA8/IC50 for EMT6 cell line. As to conditions: Mus musculus.

Turning to `CN(CCCl)CCCl`, the figures for the Hypersensitivity factor in the experiment with UV4 and in the experiment with EMT6 were 42 and 16, respectively.
